The results in this text go back to patent publication US10294227B2, “Compounds” (UNIVERSITY COURT OF THE UNIVERSITY OF EDINBURGH, priority 2015, dated 2019).

Where two headings read alike, the source gives them in different places.

For series [1] the following is noted: mouse, in vivo.
For series [2] the following is noted: rat, serum.
The conditions of series [3]: human, serum.
A short description of another series: in vivo. Conditions: female, mouse, po.

`COc1cc(-c2nn(CCN3CCC(N(C)C)CC3)c3ncnc(N)c23)ccc1NC(=O)OC(C)(C)C` [Compound 506, tert-butyl N-[4-[4-amino-1-[2-[4-(dimethylamino)-1-piperidyl]ethyl]pyrazolo[3,4-d]pyrimidin-3-yl]-2-methoxy-phenyl]carbamate]: the “Oral Bioavailability” value in series [1] is “moderate”. For the same compound, the fraction unbound was determined as 0.191 in series [2] and 0.094 in series [3]. In the series “in vivo”, this compound came in with a bioavailability of 25%.
